Earlier results as cited in patent US20180333418A1, “USE OF PAN FGFR INHIBITORS AND METHOD OF IDENTIFYING PATIENTS WITH CANCER ELIGIBLE FOR TREATMENT WITH A PAN FGFR INHIBITOR” (BAYER PHARMA AKTIENGESELLSCHAFT, priority 2014, published 2018).

Tested on: circulating tumor cells of an ovarian cancer patient with FGFR2 fusion
Settings: FGFR2 fusion in an ovarian cancer patient; Martignetti et al.; cited from earlier work

CCN1CCN(c2ccc(Nc3cc(N(C)C(=O)Nc4c(Cl)c(OC)cc(OC)c4Cl)ncn3)cc2)CC1 [BGJ398]
sensitivity of circulating tumor cells to treatment: sensitive
